We go through one substance from US20110300138A1 (published 2011).

Common to all, as to experiment: cell-based or functional assay
The target in assay [1] is human TSH receptor (full length, wild type) expressed on CHO cells (human) (UniProt P16473).
The target of assay [2] is human TSH receptor (full length, wild type) expressed in CHO cells (human) (UniProt P16473).
Assay [3] deals with human TSH receptor (wild type), expressed on transfected CHO cells (human) (UniProt P16473).
Assay [4] deals with human TSH receptor (TSHR), wild type, expressed in CHO cells (human) (UniProt P16473).

In assay [1], “porcine TSH (from UniProt P01219 25-120; P01224 21-132) (ligand)” returned a Cyclic AMP concentration in hypotonic medium; pTSH 3 ng/mL alone of 48.1 pmol/mL, a Cyclic AMP concentration in isotonic medium; pTSH 3 ng/mL alone of 41.1 pmol/mL and a Cyclic AMP concentration; 1 ng/mL pTSH alone of 61.7 pmol/mL. In assay [2], this substance gave a Cyclic AMP production concentration at 0.01 ng/mL pTSH of 1.4 pmol/mL, a Cyclic AMP production concentration at 0.03 ng/mL pTSH of 2.4 pmol/mL, a Cyclic AMP production concentration at 0.1 ng/mL pTSH of 7.2 pmol/mL and a Cyclic AMP production concentration at 0.3 ng/mL pTSH of 18.5 pmol/mL. In assay [2], this substance showed a Cyclic AMP production concentration at 1 ng/mL pTSH of 51.7 pmol/mL and a Cyclic AMP production concentration at 3 ng/mL pTSH of 55.4 pmol/mL. In assay [3], the Cyclic AMP concentration; pTSH 3 ng/mL came to 64.2 pmol/mL. In assay [4], this substance gave a Cyclic AMP concentration in hypotonic medium; 3 ng/mL pTSH alone of 65.2 pmol/mL and a Cyclic AMP concentration in isotonic medium; 3 ng/mL pTSH alone of 42.4 pmol/mL.
